Assay results from paper PMC6936329 (Cell chemical biology, 2019).

What was measured:
[1] = system: CDK2/cyclin A/E, CDK1/cyclin B, CDK7/cyclin H, CDK9/cyclin K/T1, CAMKIIα/β/γ, and GSK-3α/β
[2] = system: CDK1, CDK2, CDK7, CDK9, GSK3α/β and CAMKIIγ/δ

## CCN1CCN(Cc2ccc(Nc3ncc(F)c(-c4cc(F)c5nc(C)n(C(C)C)c5c4)n3)nc2)CC1 [abemaciclib]
[1]
  activity against secondary kinases: active
[2]
  binding to CDK1, CDK2, CDK7, CDK9, GSK3α/β and CAMKIIγ/δ: bound
